This passage reports Ki results from ChEMBL document CHEMBL4270596, “Discovery of a potent non-oxime reactivator of nerve agent inhibited human acetylcholinesterase” (2018).

Protein sequences, listed by entry. Tags and fused reporters are not part of them. Residues count along the entry.
UniProt P22303, 32-614 limits assumed: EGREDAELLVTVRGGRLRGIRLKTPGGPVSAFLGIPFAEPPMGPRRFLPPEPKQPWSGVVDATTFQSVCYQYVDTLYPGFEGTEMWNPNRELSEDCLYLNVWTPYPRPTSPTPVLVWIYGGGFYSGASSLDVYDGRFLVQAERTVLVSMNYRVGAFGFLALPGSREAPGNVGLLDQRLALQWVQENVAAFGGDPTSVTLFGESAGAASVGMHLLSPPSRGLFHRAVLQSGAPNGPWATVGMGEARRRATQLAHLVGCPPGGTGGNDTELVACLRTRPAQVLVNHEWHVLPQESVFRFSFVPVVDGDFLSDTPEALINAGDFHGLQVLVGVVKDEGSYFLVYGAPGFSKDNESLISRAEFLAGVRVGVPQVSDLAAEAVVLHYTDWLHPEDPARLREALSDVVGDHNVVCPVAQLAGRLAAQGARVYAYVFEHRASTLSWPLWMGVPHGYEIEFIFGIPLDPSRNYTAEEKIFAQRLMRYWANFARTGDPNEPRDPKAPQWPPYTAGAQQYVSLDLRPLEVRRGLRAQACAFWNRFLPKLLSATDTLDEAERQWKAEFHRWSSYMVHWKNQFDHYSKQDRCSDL

Structures are written as SMILES. Only a part of the results on these compounds is given; other tests are left out.

For the assay, the target named is Acetylcholinesterase (Homo sapiens, UniProt P22303). As to the kind of experiment: Inhibition of AChE in human erythrocytes using acetylthiocholine as substrate measured for 1 min.

As to `CCOP(=O)(OCC)Oc1ccc(N)cc1CN1CCCC1`, the Ki worked out at 1.9 ×10⁴ /M/min.
